Measured values reported in patent US20150141411A1, “SUBSTITUTED 3,4-DIHYDRO-2H-PYRIDO[1,2-A]PYRAZINE-1,6-DIONE DERIVATIVES USEFUL FOR THE TREATMENT OF (INTER ALIA) ALZHEIMER'S DISEASE” (Janssen Pharmaceuticals, Inc., priority 2012, published 2015).

Tests used:
Conditions in all cases: dose 30 mg/kg oral dosing, brain soluble fraction, animals sacrificed after 4 h, untreated animals (Ctrl) set at 100
Aβ42 = assay: In vivo efficacy: brain soluble Aβ42 in non-transgenic rodents (ELISA)
Description: (§1) To determine whether acute administration of an Aβ42 lowering agent would reduce Aβ42 levels in vivo, non-transgenic rodents, e.g. mice or rats were used. Animals treated with the Aβ42 lowering agent were examined and compared to those untreated or treated with vehicle and brain levels of soluble Aβ42 and total Aβ were quantitated by standard techniques, for example, using ELISA. Treatment periods varied from hours (h) to days and were adjusted based on the results of the Aβ42 lowering once a time course of onset of effect could be established.
(§2) A typical protocol for measuring Aβ42 lowering in vivo is shown but it is only one of many variations that could be used to optimize the levels of detectable Aβ. […] After 4 h, the animals were sacrificed and Aβ42 levels were analysed.
(§3) Blood was collected by decapitation and exsanguinations in EDTA-treated collection tubes. […] The left hemisphere was stored at −18° C. for quantitative analysis of test compound levels. […]
(§4) Mouse brains from non-transgenic animals were resuspended in 8 volumes of 0.4% DEA (diethylamine)/50 mM NaCl containing protease inhibitors (Roche-11873580001 or 04693159001) per gram of tissue, e.g. for 0.158 g brain, add 1.264 ml of 0.4% DEA. […] Nine parts of supernatant were neutralized with 1 part 0.5 M Tris-HCl pH 6.8 and used to quantify Aβtotal and Aβ42. […]

Aβ38 = assay: In vivo efficacy: brain soluble Aβ38 in non-transgenic rodents (ELISA)
Description: as §1, with “Aβ38 increasing agents” for “Aβ42 lowering agent”, “increase Aβ38” for “reduce Aβ42”, “Aβ38” for “Aβ42”, “Aβ38 increase” for “Aβ42 lowering”
A typical protocol for measuring Aβ38 increase in vivo is shown but it is only one of many variations that could be used to optimize the levels of detectable Aβ. […] After 4 h, the animals were sacrificed and Aβ38 levels were analysed.
as §3
as §4, with “Aβ total” for “Aβtotal”, “Aβ38.” for “Aβ42.”

Aβtotal = assay: In vivo efficacy: brain soluble Aβtotal in non-transgenic rodents (ELISA)
Description: as §1, §2, §3, §4

SMILES: Cc1cn(-c2ccc3n(c2=O)C[C@H](C)N(Cc2ccc(Cl)c(Cl)c2)C3=O)cn1
- Aβ42 (% vs Ctrl)_Mean (Aβ42): 76 % vs Ctrl
- Aβ38 (% vs Ctrl)_Mean (Aβ38): 83 % vs Ctrl
- Aβtotal (% vs Ctrl)_Mean (Aβtotal): 98 % vs Ctrl
